Reference: patent US20250243260A1 (ALPINE IMMUNE SCIENCES, published 2025)

Sequences of proteins named here, by UniProt entry; tags and fusion partners are left off. Residues count along the entry.
UniProt P16410, 36-223: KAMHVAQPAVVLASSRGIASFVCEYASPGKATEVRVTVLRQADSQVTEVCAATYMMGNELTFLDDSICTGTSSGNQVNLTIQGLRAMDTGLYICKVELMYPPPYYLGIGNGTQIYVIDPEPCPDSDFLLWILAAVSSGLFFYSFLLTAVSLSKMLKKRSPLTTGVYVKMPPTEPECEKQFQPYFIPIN

Tests used:
human PD-L1 [1] = target: T1, human PD-L1 (human); assay: flow cytometry, SCC152 cells transduced with human PD-L1; MFI against WT CD80 ECD-Fc
T1 construct: whole, on cells
Description: (§1) Binding affinity to CD28 was determined using primary human T cells which endogenously express CD28. Binding to PD-L1 was determined using SCC152 cells transduced with human PD-L1. Binding to CTLA-4 was measured using Chinese hamster ovary (CHO) cells stably transduced to express human CTLA-4.
For staining and analysis by flow cytometry, 75,000 human T cells, SCC152/PD-L1 cells, or CHO/CTLA-4 cells were plated in 96-well round-bottom plates. Cells were spun down and resuspended in staining buffer (PBS (phosphate buffered saline), 1% BSA (bovine serum albumin), 1 mM EDTA, and 0.1% sodium azide) for 20 minutes to block non-specific binding. Afterwards, cells were centrifuged, stain buffer aspirated, and then resuspended in 50 μL of a 1:5 serial dilution of each CD80-Fc candidate variant starting at 100 nM ending at 0.8 nM. Primary staining was performed on ice for 60 minutes, before washing cells in […] staining buffer three times. PE-conjugated anti-human Fc (Jackson ImmunoResearch, USA) was diluted 1:250 in 50 μL staining buffer and added to cells and incubated another 30 minutes at 4° C. […] Samples were analyzed CytoFLEX LX flow cytometer (Beckman Coulter, USA). Median Fluorescence Intensity (MFI) was calculated for each cell type using the CytExpert software from Beckman Coulter. […]

[2] = target: CD28 on Jurkat/IL2-reporter cells (UniProt P10747); assay: cell-based or functional assay
human PD-L1 [3] = target: T1, human PD-L1; assay: flow cytometry, SCC152 cells transduced with human PD-L1, anti-human Fc detection
Description: as §1
(§2) For staining and analysis by flow cytometry, 75,000 human T cells, SCC152/PD-L1 cells, or CHO/CTLA-4 cells were plated in 96-well round-bottom plates. Cells were spun down and resuspended in staining buffer (PBS (phosphate buffered saline), 1% BSA (bovine serum albumin), 1 mM EDTA, and 0.1% sodium azide) for 20 minutes to block non-specific binding. Afterwards, cells were centrifuged, stain buffer aspirated, and then resuspended in 50 μL of a 1:5 serial dilution of each CD80-Fc candidate variant starting at 100 nM ending at 0.8 nM. Primary staining was performed on ice for 60 minutes, before washing cells in […] staining buffer three times. PE-conjugated anti-human Fc (Jackson ImmunoResearch, USA) was diluted 1:250 in 50 μL staining buffer and added to cells and incubated another 30 minutes at 4° C. Cells were washed two times in 150 μL stain buffer and then fixed in 2% formaldehyde/PBS for 5 minutes at room temperature. Samples were analyzed CytoFLEX LX flow cytometer (Beckman Coulter, USA). Median Fluorescence Intensity (MFI) was calculated for each cell type using the CytExpert software from Beckman Coulter.
(§3) Binding assays were carried out to assess the specificity and affinity of multivalent proteins to cell-expressed CTLA-4, CD28, and PD-L1 counter structures.

human CD28 on cells [4] = target: T2, human CD28 on cells (human, UniProt P10747); assay: cell-based or functional assay
[5] = target: T3, human CTLA-4 on CHO cells (human, UniProt P16410, in part); assay: flow cytometry, CHO/CTLA-4 cells
T3 construct: whole, on cells; also called CHO/CTLA-4
Description: as §1, §2, §3

human CD28 on cells [6] = target: T2, human CD28 on cells; assay: flow cytometry, primary human T cells
Description: as §1, §2, §3

human CTLA-4 = target: T4, human CTLA-4 (human, UniProt P16410, in part); assay: flow cytometry on CHO/CTLA-4 cells
T4 construct: whole, on cells; also called CHO/CTLA-4 cells
Description: as §1, §2

human PD-L1 [7] = target: T5, human PD-L1 (human); assay: flow cytometry, SCC152/PD-L1 cells
T5 construct: whole, on cells; also called SCC152/PD-L1 cells
Description: as §1, §2

[8] = target: T6, human CD28 (endogenously expressed on primary human T cells) (human, UniProt P10747); assay: flow cytometry, primary human T cells
T6 construct: whole, on cells
Description: as §1, §2

B1: IgG4 Fc Control (other)
chain: ESKYGPPCPPCPAPEFLGGPSVFLFPPKPKDTLMISRTPEVTCVVVDVSQEDPEVQFNWYVDGVEVHNAKTKPREEQFNSTYRVVSVLTVLHQDWLNGKEYKCKVSNKGLPSSIEKTISKAKGQPREPQVYTLPPSQEEMTKNQVSLTCLVKGFYPSDIAVEWESNGQPENNYKTTPPVLDSDGSFFLYSRLTVDKSRWQEGNVFSCSVMHEALHNHYTQKSLSLSLG
notes: Human IgG4 Fc with S228P, no CD80 domain; also called Fc-only negative control; negative control Fc alone
- Fold change vs WT CD80 @20 nM (human PD-L1 [1]): 1 fold
- Fold Increase over WT at 50 nM [2]: 0.89 fold
- Rel. Luminescence Units (RLU) 2 nM [2]: 2380 RLU
- Rel. Luminescence Units (RLU) 10 nM [2]: 2560 RLU
- Rel. Luminescence Units (RLU) 50 nM [2]: 2160 RLU
- Rel. Luminescence Units (RLU) 250 nM [2]: 2190 RLU
- Anti-Human Fc (MFI) at 0.8 nM (human PD-L1 [3]): 650 MFI
- Anti-Human Fc (MFI) at 4 nM (human PD-L1 [3]): 636 MFI
- Anti-Human Fc (MFI) at 20 nM (human PD-L1 [3]): 652 MFI
- Anti-Human Fc (MFI) at 100 nM (human PD-L1 [3]): 694 MFI

B2: IgG4 Fc Control (other)
chain: B1 chain
notes: Negative control, Fc alone; also called Fc-only negative control
- Fold Increase over WT at 50 nM (human CD28 on cells [4]): 0.89 fold
- Rel. Luminescence Units (RLU) at 2 nM, K562/OKT3/PD-L1 + Jurkat/IL-2 reporter (human CD28 on cells [4]): 2380 RLU
- Rel. Luminescence Units (RLU) at 10 nM, K562/OKT3/PD-L1 + Jurkat/IL-2 reporter (human CD28 on cells [4]): 2560 RLU
- Rel. Luminescence Units (RLU) at 50 nM, K562/OKT3/PD-L1 + Jurkat/IL-2 reporter (human CD28 on cells [4]): 2160 RLU
- Rel. Luminescence Units (RLU) at 250 nM, K562/OKT3/PD-L1 + Jurkat/IL-2 reporter (human CD28 on cells [4]): 2190 RLU
- Anti-Human Fc (MFI) at 0.8 nM [5]: 303 MFI
- Anti-Human Fc (MFI) at 4 nM [5]: 312 MFI
- Anti-Human Fc (MFI) at 20 nM [5]: 305 MFI
- Anti-Human Fc (MFI) at 100 nM [5]: 303 MFI
- Fold change vs WT CD80 @20 nM [5]: 0 fold
- Anti-Human Fc (MFI) at 0.8 nM (human CD28 on cells [6]): 189 MFI
- Anti-Human Fc (MFI) at 4 nM (human CD28 on cells [6]): 167 MFI
- Anti-Human Fc (MFI) at 20 nM (human CD28 on cells [6]): 170 MFI
- Fold change vs WT CD80 @20 nM (human CD28 on cells [6]): 0.9 fold

B3: IgG4 Fc Control (other)
chain: B1 chain
notes: Negative control; also called negative control Fc alone
- MFI at 0.8 nM (human CTLA-4): 303 MFI
- MFI at 4 nM (human CTLA-4): 312 MFI
- MFI at 20 nM (human CTLA-4): 305 MFI
- fold change vs WT CD80 at 20 nM (human CTLA-4): 0 fold

B4: IgG4 Fc Control (other)
chain: B1 chain
notes: negative control; also called Fc-only negative control
- Anti-Human Fc (MFI) at 0.8 nM (human PD-L1 [7]): 650 MFI
- Anti-Human Fc (MFI) at 4 nM (human PD-L1 [7]): 636 MFI
- Anti-Human Fc (MFI) at 20 nM (human PD-L1 [7]): 652 MFI
- Anti-Human Fc (MFI) at 100 nM (human PD-L1 [7]): 694 MFI
- Fold change vs WT CD80 @20 nM (human PD-L1 [7]): 1 fold

B5: IgG4 Fc Control (human IgG4 Fc S228P alone) (other)
chain: B1 chain
notes: negative control, Fc alone; also called Fc-only negative control
- MFI (anti-human Fc) at 0.8 nM [8]: 189 MFI
- MFI (anti-human Fc) at 4 nM [8]: 167 MFI
- MFI (anti-human Fc) at 20 nM [8]: 170 MFI
- MFI (anti-human Fc) at 100 nM [8]: 172 MFI
- fold change of MFI vs WT CD80 at 20 nM [8]: 0.9 fold
